Chains of the proteins cited; added tags and fusions are not shown.
UniProt Q99572, whole entry: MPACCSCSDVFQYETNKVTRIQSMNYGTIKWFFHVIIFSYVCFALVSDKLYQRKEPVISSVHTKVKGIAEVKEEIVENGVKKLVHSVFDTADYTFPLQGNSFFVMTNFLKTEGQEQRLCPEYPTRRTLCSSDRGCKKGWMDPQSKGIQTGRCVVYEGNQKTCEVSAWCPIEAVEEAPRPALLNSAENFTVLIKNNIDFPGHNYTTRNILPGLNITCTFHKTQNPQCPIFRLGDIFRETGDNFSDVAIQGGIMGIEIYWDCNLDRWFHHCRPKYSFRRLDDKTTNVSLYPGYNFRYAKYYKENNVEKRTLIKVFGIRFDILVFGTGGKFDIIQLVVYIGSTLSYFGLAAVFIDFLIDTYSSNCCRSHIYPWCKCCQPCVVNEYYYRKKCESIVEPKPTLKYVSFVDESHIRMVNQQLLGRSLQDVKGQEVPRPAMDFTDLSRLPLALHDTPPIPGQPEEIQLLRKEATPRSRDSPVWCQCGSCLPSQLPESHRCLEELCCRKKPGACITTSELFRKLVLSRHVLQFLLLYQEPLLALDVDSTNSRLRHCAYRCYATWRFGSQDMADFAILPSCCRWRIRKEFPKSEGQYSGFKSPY
UniProt Q12809, whole entry: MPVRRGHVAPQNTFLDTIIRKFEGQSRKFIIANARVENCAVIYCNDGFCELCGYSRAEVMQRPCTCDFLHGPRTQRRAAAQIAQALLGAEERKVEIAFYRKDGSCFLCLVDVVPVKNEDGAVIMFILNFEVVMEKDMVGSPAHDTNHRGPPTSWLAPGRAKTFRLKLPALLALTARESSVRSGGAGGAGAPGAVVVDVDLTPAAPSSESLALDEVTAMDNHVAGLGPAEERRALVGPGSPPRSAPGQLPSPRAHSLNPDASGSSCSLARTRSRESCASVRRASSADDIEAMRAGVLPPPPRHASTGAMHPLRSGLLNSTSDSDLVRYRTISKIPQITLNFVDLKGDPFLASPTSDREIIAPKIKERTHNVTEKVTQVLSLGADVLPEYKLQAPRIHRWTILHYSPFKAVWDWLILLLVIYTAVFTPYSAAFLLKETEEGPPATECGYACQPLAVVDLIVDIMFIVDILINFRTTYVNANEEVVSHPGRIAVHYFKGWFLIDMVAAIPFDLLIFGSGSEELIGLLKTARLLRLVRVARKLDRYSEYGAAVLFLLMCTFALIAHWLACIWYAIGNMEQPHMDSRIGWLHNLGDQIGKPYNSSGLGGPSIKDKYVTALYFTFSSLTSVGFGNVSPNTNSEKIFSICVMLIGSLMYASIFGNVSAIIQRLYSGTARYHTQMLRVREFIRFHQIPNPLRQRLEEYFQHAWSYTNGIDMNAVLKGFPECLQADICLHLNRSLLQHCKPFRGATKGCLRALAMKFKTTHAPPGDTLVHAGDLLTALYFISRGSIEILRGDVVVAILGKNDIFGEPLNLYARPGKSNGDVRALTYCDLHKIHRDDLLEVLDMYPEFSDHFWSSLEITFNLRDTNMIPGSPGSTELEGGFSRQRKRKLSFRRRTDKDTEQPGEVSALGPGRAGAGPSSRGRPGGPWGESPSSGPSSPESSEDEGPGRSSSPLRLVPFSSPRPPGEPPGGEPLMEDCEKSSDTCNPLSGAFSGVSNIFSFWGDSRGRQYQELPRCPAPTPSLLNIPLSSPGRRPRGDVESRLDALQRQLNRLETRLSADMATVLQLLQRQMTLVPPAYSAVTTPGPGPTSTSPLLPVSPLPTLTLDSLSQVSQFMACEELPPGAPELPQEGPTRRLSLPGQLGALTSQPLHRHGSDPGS

According to US7964616B2, “Compounds 679” (AstraZeneca AB, priority 2007, dated 2011):

Assays:
P2X7 receptor = P2X7 receptor (Homo sapiens, UniProt Q99572); assay: P2X7 assay (bbATP-induced ethidium bromide fluorescence in THP-1 cells); details: for P2X7 pIC50: 10^-5M bbATP agonist, ethidium bromide fluorescence
Description: Certain compounds such as benzoylbenzoyl adenosine triphosphate (bbATP) are known to be agonists of the P2X7 receptor, effecting the formation of pores in the plasma membrane (Drug Development Research (1996), 37(3), p. 126). Consequently, when the receptor is activated using bbATP in the presence of ethidium bromide (a fluorescent DNA probe), an increase in the fluorescence of intracellular DNA-bound ethidium bromide is observed. The increase in fluorescence can be used as a measure of P2X7 receptor activation and therefore to quantify the effect of a compound on the P2X7 receptor.
In this manner, each of the title compounds of the Examples was tested for antagonist activity at the P2X7 receptor. Thus, the test was performed in 96-well flat bottomed microtitre plates, the wells being filled with 250 μl of test solution comprising 200 μl of a suspension of THP-1 cells (2.5×10^6 cells/ml) containing 10^−4M ethidium bromide, 25 μl of a high potassium buffer solution containing 10^−5M bbATP, and 25 μl of the high potassium buffer solution containing concentrations of test compound typically from 30 μM-0.001 μM. The plate was covered with a plastics sheet and incubated at 37° C. for one hour. The plate was then read in a Perkin-Elmer fluorescent plate reader, excitation 520 nm, emission 595 nm, slit widths: Ex 15 nm, Em 20 nm. For the purposes of comparison, bbATP (a P2X7 receptor agonist) and pyridoxal 5-phosphate (a P2X7 receptor antagonist) were used separately in the test as controls. From the readings obtained, a pIC50 figure was calculated for each test compound, this figure being the negative logarithm of the concentration of test compound necessary to reduce the bbATP agonist activity by 50%.

[1] = molecular target: ion channel subunit encoded by the human ether-a-go-go-related gene (hERG) (Homo sapiens, UniProt Q12809); assay: hERG binding protocol (radioligand competition, HEK cell membranes expressing hERG); details: for hERG pIC50: a 'less than' figure indicates <50% inhibition at the quoted concentration, the highest tested; for P2X7:hERG Ratio: ratio of P2X7:hERG affinity; for pIC50: read-out: hERG IC50, radioligand binding, HEK membranes expressing hERG
Description: The hERG assay was performed according to the procedure described in WO2005/037052. The affinity (pIC50) of compounds for the ion channel subunit encoded by the human ether-a-go-go-related gene (hERG) gene was determined by competition binding of radioligand 3,7-Bis[2-(4-nitro[3,5-^3H]phenyl)ethyl]-3,7-diazabicyclo[3.3.1]nonane to HEK (human embryonic kidney) cell membranes expressing hERG, in a filter wash format.
Membranes were incubated for 3 hours at room temperature with serial dilutions of the test compounds, radioligand 3,7-Bis[2-(4-nitro[3,5-^3H]phenyl)ethyl]-3,7-diazabicyclo[3.3.1]nonane at 1 nM final concentration, and assay buffer (10 mM HEPES, 130 mM NaCl, 5 mM KCl, 1 mM EGTA, 0.8 mM MgCl2, pH 7.4). The assay was conducted in a final volume of 200 μL, in the presence of 1% (v/v) dimethyl sulphoxide. Non-specific binding was determined by measuring the binding of 3,7-Bis[2-(4-nitro[3,5-^3H]phenyl)ethyl]-3,7-diazabicyclo[3.3.1]nonane in the presence of 10 […]. During this incubation GF/B filter plates were immersed in coating solution 0.3% (v/v) Polyethylenimine and 0.2% (w/v) BSA). Following incubation assay plates were harvested onto precoated GF/B filter plates using a Tomtec harvester.
The pIC50, defined as the negative logarithm of the concentration of compound required for 50% reduction in 3,7-Bis[2-(4-nitro[3,5-^3H]phenyl)ethyl]-3,7-diazabicyclo[3.3.1]nonane binding, was determined. A ‘less than’ figure indicates <50% inhibition at the quoted concentration, this being the highest concentration tested.

[2] = read-out: P2X7 IC50, bbATP agonist

Structure (SMILES) | P2X7 pIC50 (P2X7 receptor) | pIC50 (P2X7 receptor; [2]) | hERG pIC50 [1] | P2X7:hERG Ratio [1] | pIC50 [1] | P2X7 pIC50 (P2X7 receptor; tested form: HCl) | pIC50 (P2X7 receptor; read-out: P2X7 IC50, bbATP agonist, tested form: HCl) | hERG pIC50 ([1]; tested form: HCl) | P2X7:hERG Ratio ([1]; tested form: HCl) | pIC50 ([1]; tested form: HCl)
N[C@H]1CCN(c2ccc3c(C(=O)NCC4CCCCC4)c(Cl)ccc3n2)C1 | 7.9 | 7.89 | 4.9 | 1000 | 4.89 | – | – | – | – | –
O=C(NCC1CCCCC1)c1c(Cl)ccc2nc(N3CC[C@H](NCCO)C3)ccc12 | – | – | – | – | – | 7.5 | 7.49 | 4.9 | 398 | 4.89
O=C(CC1CCCCC1)Nc1c(Cl)ccc2nc(N3CC[C@H](O)C3)ccc12 | 7.2 | 7.20 | 4.5 | 502 | 4.49 | – | – | – | – | –
O=C(CC1CCCCC1)Nc1c(Cl)ccc2nc(N3CC[C@H](NCCO)C3)ccc12 | 8.2 | 8.22 | 5.1 | 1258 | 5.10 | – | – | – | – | –

pIC50: −log10 of the molar value. Like-named read-outs stand apart in the source and are kept apart here.
